Experimental data from ChEMBL document CHEMBL4340514, “(2S)-N-2-methoxy-2-phenylethyl-6,7-benzomorphan compound (2S-LP2): Discovery of a biased mu/delta opioid receptor agonist” (Eur J Med Chem, 2019).

Sequences of proteins named here, by UniProt entry; tags and fusion partners are left off.
UniProt P35372, whole entry: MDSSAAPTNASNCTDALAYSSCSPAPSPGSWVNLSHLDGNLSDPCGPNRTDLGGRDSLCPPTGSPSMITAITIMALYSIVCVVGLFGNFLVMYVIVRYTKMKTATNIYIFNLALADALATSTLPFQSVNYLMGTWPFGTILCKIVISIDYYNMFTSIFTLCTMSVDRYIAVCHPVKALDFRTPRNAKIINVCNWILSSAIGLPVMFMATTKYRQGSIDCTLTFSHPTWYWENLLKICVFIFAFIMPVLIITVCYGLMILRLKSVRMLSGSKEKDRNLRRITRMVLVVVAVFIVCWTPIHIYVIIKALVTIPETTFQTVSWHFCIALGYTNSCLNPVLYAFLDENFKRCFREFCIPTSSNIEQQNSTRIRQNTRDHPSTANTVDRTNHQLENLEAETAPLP

Tests used:
[1] = biological target: T1, Mu-type opioid receptor (Homo sapiens, UniProt P35372)
[2] = biological target: T1, Mu-type opioid receptor; remark: listed apart in the source

Work on `CC(C)C[C@@H](NC(=O)[C@H](Cc1ccccc1)NC(=O)CNC(=O)[C@@H](C)NC(=O)[C@@H](N)Cc1ccc(O)cc1)C(=O)O` [DADLE] yielded an EC50 [1] of 129 nM and an EC50 [2] of 1380 nM.
